The target in assay [1] is Neuronal acetylcholine receptor subunit alpha-3 (Homo sapiens, UniProt P32297).
For assay [2], the target named is Neuronal acetylcholine receptor subunit alpha-7 (Homo sapiens, UniProt P36544).

Protein sequences, listed by entry. Tags and fused reporters are not part of them. Residues count along the entry.
UniProt P32297, 32-505 limits assumed: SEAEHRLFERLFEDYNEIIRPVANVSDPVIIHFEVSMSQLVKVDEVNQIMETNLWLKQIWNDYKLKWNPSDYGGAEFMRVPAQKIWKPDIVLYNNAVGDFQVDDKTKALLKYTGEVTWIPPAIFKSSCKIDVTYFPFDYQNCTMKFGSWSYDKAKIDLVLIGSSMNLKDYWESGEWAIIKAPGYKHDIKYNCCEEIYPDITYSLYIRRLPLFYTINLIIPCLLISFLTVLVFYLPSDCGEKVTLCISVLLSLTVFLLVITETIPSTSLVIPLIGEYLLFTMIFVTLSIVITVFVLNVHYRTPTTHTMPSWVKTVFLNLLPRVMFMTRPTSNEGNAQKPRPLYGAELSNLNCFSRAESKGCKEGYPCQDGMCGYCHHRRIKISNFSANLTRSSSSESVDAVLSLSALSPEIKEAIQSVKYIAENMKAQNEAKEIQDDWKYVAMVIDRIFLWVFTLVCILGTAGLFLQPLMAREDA
UniProt P36544, 23-502 limits assumed: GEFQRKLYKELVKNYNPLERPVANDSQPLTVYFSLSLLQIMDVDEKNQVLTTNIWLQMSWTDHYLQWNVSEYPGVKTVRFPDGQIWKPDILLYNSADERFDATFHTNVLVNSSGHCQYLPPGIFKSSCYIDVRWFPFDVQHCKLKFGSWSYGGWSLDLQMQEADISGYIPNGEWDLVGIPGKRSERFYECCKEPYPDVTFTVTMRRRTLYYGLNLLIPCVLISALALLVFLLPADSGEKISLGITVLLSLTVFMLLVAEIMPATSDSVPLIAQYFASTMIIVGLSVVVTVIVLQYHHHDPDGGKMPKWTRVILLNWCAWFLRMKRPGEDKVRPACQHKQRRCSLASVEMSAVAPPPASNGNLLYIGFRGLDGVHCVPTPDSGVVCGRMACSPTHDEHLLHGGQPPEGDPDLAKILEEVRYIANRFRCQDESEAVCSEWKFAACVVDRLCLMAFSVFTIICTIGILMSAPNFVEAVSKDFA

Where only a bound is given, the exact number is not on record here.

One may read the EC50 as the concentration that produces a half-maximal response. A high value points to lower potency in that assay. For orientation: Ki means the equilibrium dissociation constant of an inhibitor or competing ligand from its target. Low readings indicate a stronger hold on the target, high ones a looser hold on the target. Turning to `CN(C)C(=O)OCCC(C1CC1)N(C)C` (configuration not stated), the EC50 in assay [1] was > 1000 µM. Moreover, the Ki in assay [2] is > 1000 µM.

The record behind these values is BindingDB's records for 19027295.
